Data from patent US20250270231A1, “ULOTARONT HYDROCHLORIDE MANUFACTURING PROCESS” (Sumitomo Pharma America, Inc., priority 2024, published 2025).

Assay: Particle size distribution of ulotaront HCl API lots (laser diffraction)
Type: physicochemical
Conditions: for SPAN: (D90 − D10) divided by D50; for Particle Size Distribution D10 / Particle Size Distribution D50 / Particle Size Distribution D90: ulotaront HCl API lots, Table 1; for Dv(10) / Dv(50) / Dv(90): PSD range study lots, average of three individual measurements
Protocol: The particle size was measured before and after milling using laser diffraction.

Structure (SMILES) | SPAN | Particle Size Distribution D10 | Particle Size Distribution D50 | Particle Size Distribution D90 | Dv(10) | Dv(50) | Dv(90)
CNC[C@@H]1OCCc2ccsc21.Cl [API-10] | 1.90 | 33 μm | 106 μm | 234 μm |  |  | 
CNC[C@@H]1OCCc2ccsc21.Cl [API-9] | 2.22 | 10 μm | 54 μm | 130 μm |  |  | 
CNC[C@@H]1OCCc2ccsc21.Cl [API-5] | 0.82 | 72 μm | 108 μm | 161 μm |  |  | 
CNC[C@@H]1OCCc2ccsc21.Cl [API-8] | 1.82 | 39 μm | 108 μm | 236 μm |  |  | 
CNC[C@@H]1OCCc2ccsc21.Cl [API-6] | 1.43 | 27 μm | 65 μm | 120 μm |  |  | 
CNC[C@@H]1OCCc2ccsc21.Cl [API-1] | 1.28 | 36 μm | 68 μm | 123 μm |  |  | 

Results, then the compound that gave them:

SPAN | Particle Size Distribution D10 | Particle Size Distribution D50 | Particle Size Distribution D90 | Dv(10) | Dv(50) | Dv(90) | Structure (SMILES)
 |  |  |  | 14 μm | 67 μm | 218 μm | CNC[C@@H]1OCCc2ccsc21.Cl [API Lot 2]
 |  |  |  | 22 μm | 98 μm | 252 μm | CNC[C@@H]1OCCc2ccsc21.Cl [API Lot 1]
1.79 | 69 μm | 149 μm | 335 μm |  |  |  | CNC[C@@H]1OCCc2ccsc21.Cl [API-2]
1.96 | 69 μm | 157 μm | 376 μm |  |  |  | CNC[C@@H]1OCCc2ccsc21.Cl [API-3]
1.91 | 14 μm | 65 μm | 138 μm |  |  |  | CNC[C@@H]1OCCc2ccsc21.Cl [API-7]
1.63 | 74 μm | 189 μm | 382 μm |  |  |  | CNC[C@@H]1OCCc2ccsc21.Cl [API-4]
 |  |  |  | 8 μm | 37 μm | 120 μm | CNC[C@@H]1OCCc2ccsc21.Cl [API Lot 3]
